Our source for the Ki values is ChEMBL document CHEMBL1149152, “Selective, orally active gamma-aminobutyric acidA alpha5 receptor inverse agonists as cognition enhancers” (J Med Chem, 2004).

Chains of the proteins cited; added tags and fusions are not shown. Residues count along the entry.
UniProt P14867, 28-456 limits assumed: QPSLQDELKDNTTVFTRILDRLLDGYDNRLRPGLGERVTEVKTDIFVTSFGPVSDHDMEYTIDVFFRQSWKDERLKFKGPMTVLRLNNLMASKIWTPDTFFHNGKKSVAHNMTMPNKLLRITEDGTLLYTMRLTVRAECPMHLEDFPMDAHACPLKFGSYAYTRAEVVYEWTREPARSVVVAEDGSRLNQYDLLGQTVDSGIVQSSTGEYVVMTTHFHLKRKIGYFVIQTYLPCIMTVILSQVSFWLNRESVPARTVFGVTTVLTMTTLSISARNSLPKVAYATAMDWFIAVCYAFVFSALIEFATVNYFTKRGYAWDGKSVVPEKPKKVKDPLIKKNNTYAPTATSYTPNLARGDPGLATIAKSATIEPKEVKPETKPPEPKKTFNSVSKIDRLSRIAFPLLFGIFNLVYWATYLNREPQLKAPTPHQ
UniProt P18507, 40-475 limits assumed: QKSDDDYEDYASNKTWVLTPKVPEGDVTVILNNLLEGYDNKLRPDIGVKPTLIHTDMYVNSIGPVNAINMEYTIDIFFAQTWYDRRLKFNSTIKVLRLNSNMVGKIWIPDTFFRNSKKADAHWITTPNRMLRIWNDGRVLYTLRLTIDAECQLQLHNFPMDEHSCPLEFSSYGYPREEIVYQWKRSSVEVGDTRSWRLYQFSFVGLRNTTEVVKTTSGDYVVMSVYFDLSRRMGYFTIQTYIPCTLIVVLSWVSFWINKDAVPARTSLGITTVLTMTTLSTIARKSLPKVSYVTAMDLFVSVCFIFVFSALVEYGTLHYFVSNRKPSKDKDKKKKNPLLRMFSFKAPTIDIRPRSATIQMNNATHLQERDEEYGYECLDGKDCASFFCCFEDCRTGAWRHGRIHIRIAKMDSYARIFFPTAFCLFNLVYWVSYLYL
UniProt P28472, 26-473 limits assumed: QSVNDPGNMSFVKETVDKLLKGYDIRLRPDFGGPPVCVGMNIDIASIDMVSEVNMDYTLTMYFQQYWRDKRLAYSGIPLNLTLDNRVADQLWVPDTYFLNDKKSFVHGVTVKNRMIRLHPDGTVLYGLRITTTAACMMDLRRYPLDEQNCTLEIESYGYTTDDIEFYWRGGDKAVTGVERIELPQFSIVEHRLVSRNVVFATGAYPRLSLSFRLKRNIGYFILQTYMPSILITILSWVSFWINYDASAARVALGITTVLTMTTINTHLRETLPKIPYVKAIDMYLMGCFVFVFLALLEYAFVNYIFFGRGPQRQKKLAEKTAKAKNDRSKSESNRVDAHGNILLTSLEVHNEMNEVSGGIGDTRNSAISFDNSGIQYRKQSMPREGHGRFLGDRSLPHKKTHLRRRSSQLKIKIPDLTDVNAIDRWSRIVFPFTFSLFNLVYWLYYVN
UniProt P34903, 29-492 limits assumed: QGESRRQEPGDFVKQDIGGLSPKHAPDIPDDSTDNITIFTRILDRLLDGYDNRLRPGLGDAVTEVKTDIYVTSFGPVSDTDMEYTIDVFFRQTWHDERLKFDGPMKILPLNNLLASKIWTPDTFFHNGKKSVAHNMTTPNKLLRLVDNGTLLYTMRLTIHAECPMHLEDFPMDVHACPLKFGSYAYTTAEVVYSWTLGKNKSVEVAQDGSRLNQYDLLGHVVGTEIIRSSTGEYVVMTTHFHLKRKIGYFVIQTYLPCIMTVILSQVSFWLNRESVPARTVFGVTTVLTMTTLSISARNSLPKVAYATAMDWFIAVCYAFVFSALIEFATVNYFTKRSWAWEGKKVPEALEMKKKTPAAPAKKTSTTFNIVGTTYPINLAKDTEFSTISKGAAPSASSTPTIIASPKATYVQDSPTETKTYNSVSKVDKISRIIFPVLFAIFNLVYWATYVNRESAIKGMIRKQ
UniProt P31644, 32-462 limits assumed: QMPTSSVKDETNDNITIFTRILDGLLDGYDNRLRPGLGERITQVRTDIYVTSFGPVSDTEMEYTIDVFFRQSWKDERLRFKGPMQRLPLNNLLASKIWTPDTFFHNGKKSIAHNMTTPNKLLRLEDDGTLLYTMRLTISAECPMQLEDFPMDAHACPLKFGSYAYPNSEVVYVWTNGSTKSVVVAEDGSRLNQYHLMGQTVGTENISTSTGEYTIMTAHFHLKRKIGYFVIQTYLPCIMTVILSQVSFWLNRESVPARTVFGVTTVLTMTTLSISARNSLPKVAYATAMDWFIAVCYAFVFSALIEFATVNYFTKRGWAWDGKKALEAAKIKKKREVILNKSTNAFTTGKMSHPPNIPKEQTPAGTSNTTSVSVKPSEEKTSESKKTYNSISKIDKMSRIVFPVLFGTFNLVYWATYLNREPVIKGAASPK

Usually Ki stands for a dissociation constant, usually derived from enzyme kinetics or from competition with a known ligand. High values mean a looser hold on the target, low ones a stronger hold on the target.

Holding throughout (details): oocyte
Test [1] addresses GABA-A receptor; alpha-1/beta-3/gamma-2 (Homo sapiens, UniProt P14867+P18507+P28472). Description: Displacement of [3H]-Ro- 15-1788 from human GABA-A alpha-1-beta-3-gamma-2 receptor subunits expressed in Xenopus oocytes. A general note: In a radioligand displacement assay an active substance lowers the binding of a labelled ligand.
The target of test [2] is GABA-A receptor; alpha-3/beta-3/gamma-2 (Homo sapiens, UniProt P18507+P28472+P34903). Briefly: Displacement of [3H]-Ro- 15-1788 from human GABA-A alpha-3-beta-3-gamma-2 receptor subunits expressed in Xenopus oocytes.
Test [3] deals with GABA-A receptor; alpha-5/beta-3/gamma-2 (Homo sapiens, UniProt P18507+P28472+P31644). Briefly: Displacement of [3H]-Ro- 15-1788 from human GABA-A alpha-5-beta-3-gamma-2 receptor subunits expressed in Xenopus oocytes.

Turning to `CNC1=Nc2ccc(Cl)cc2C(c2ccccc2)=[N+]([O-])C1`, the Ki in test [1] was found to be 770 nM; in test [2], 740 nM; in test [3], 520 nM.
